From patent US5886007A (priority 1997, dated 1999)

Molecular target: rat brain AChE (Rattus norvegicus, UniProt P37136)
Details: IC50 BChE divided by IC50 for AChE

c1ccc2c(NCCCCCCCCCNc3c4c(nc5ccccc35)CCCC4)c3c(nc2c1)CCCC3
Selectivity: 404
